Measurements taken from patent publication EP3277718B1 (Baxalta GmbH, dated 2021).

Experiments:
mouse MIF, recombinant = mouse MIF, recombinant (mouse, UniProt P34884 2-115); experiment: SPR, Biacore 3000, RAM9 amine-coupled to CM5 chip, MIF injected at 40-480 nM, 1:1 Langmuir fit with mass transfer
rat MIF, recombinant [1] = molecular target: T1, rat MIF, recombinant (rat, UniProt P30904 2-115); experiment: as above
T1 construct: In the potency row the target is the endogenous MIF of rat NR8383 macrophages

[2] = molecular target: T2, human MIF (macrophage migration inhibitory factor), recombinant (human, UniProt P14174 2-115); experiment: SPR, Biacore 3000, RAM9 on CM5 chip
T2 construct: The background says that MIF crystallises as a trimer; In the potency rows the target is the endogenous MIF of human U937 cells; also called GIF

rat MIF, recombinant [3] = molecular target: T1, rat MIF, recombinant; experiment: cell-based or functional assay

B1: RAM9 (antibody, human IgG1, kappa, V domains shown)
VH: EVQLLESGGGLVQPGGSLRLSCAASGFTFSIYSMNWVRQAPGKGLEWVSSIGSSGGTTYYADSVKGRFTISRDNSKNTLYLQMNSLRAEDTAVYYCAGSQWLYGMDVWGQGTTVTVSS
VL: DIQMTQSPSSLSASVGDRVTITCRSSQRIMTYLNWYQQKPGKAPKLLIFVASHSQSGVPSRFRGSGSETDFTLTISGLQPEDSATYYCQQSFWTPLTFGGGTKVEIKR
notes: also deposited as plasmids DSM 25860 (hc) and DSM 25859 (lc); also called anti-MIF antibody RAM9; anti-oxMIF antibody
Mouse MIF, recombinant
  Kd: 6.9 nM
Rat MIF, recombinant [1]
  Kd: 5.6 nM
[2]
  fold higher affinity than for mouse and rat MIF: ~3 fold
Rat MIF, recombinant [3]
  Potency (IC 50); inhibition of random migration of NR8383 rat macrophages, Transwell chemokinesis assay: 11 nM
